Results: PubChem BioAssay AID686971 (National Center for Advancing Translational Sciences (NCATS), 2013)
The list shows a part of the results, in another mix than the full data. Records with an inconclusive call do not appear. Active and inactive are the calls of the source. Calls follow the shape of the dose curve; as a rule, active = well fitted cell-killing curve with a large enough effect; inconclusive = small, poorly fitted or top-dose-only effect, or effect the other way, or another doubt; inactive = no such curve, though single readings can be large or run the other way.

Assay: qHTS for induction of synthetic lethality in tumor cells producing 2HG: qHTS for the HT-1080-IDH1KD cell line;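 as to activity, negative = toxicity: 0% = DMSO wells and -100% = cell-free medium wells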
Details: HT-1080 IDH1 knockdown viability, ATP luminescence, 48 h; series mostly up to 46.1 µM; activity, negative = toxicity: at the top concentration
Potency is read from the fitted curve at half-maximal effect.

| Structure (SMILES) | activity, negative = toxicity | Potency |
| --- | --- | --- |
| Nc1cccc2c([As](=O)(O)O)cccc12 | inactive: 0.934% | – |
| CCCOP(=S)(Nc1nc(N)cc(=O)[nH]1)OCCC | inactive: 10.8% | – |
| COc1cc(C2NCCC3(OCCO3)C2(C)C)cc(OC)c1OC (stereo not drawn) | inactive: -2.63% | – |
| CCOP(=O)(Nc1cccc2ccccc12)OCC | inactive: 7% | – |
| O=P1(Nc2nc3ccc(Cl)cc3s2)COc2ccccc2O1 (stereo not drawn) | inactive: -2.68% | – |
| CCOc1ccc(C2=NCC(CBr)S2)cc1 (stereo not drawn) | inactive: 6.07% | – |
| CC(C)(C)C(=O)NC(Sc1ccccc1)C(Cl)(Cl)Cl (stereo not drawn) | inactive: -12.1% | – |
| CCc1cc(O)c([N+](=O)[O-])c(C)c1[N+](=O)[O-] | inactive: -9.3% | – |
| Cc1ccccc1CN(C)C(=O)COC(=O)C(O)(c1ccccc1)c1ccccc1 | inactive: -5.29% | – |
| C[C@@H]1C=CCP(=O)(Oc2ccccc2)O1 (stereo partly drawn) | inactive: 12.7% | – |
| C[C@H]1OP(=O)(Oc2ccccc2)C[C@@H]2O[C@@H]21 (stereo partly drawn) | inactive: 6.24% | – |
| N#C/C(=C\c1ccc(N(CCBr)CCBr)cc1)C(N)=O | inactive: -21.1% | – |
| CC(=O)c1ccc(N2CC2c2ccncc2)cc1 (stereo not drawn) | inactive: 10.5% | – |
| COC(=O)C1(C)COP(=O)(NCc2ccccc2)OC1 (stereo not drawn) | inactive: 16.1% | – |
| CC(=O)Nc1ccc([As](=O)(O)O)c(O)c1 | inactive: 16.5% | – |
| CC(=O)Nc1ccc(Oc2c([N+](=O)[O-])cc([N+](=O)[O-])cc2[N+](=O)[O-])cc1 | inactive: -8.17% | – |
| c1ccc(-c2nn[nH]n2)c(-c2nn[nH]n2)c1 | inactive: 11.7% | – |
| Cc1ccc(NP(=O)(Oc2cccc(C)c2)Oc2cccc(C)c2)nc1 | inactive: 7.68% | – |
| CCNC(=S)/N=C(\N)N[N+](=O)[O-] | inactive: 1.75% | – |
| O=C(NC1CCS(=O)(=O)C1)NP(=S)(Oc1ccccc1)Oc1ccccc1 (stereo not drawn) | inactive: 8.65% | – |
| O=P1(N(CCCl)CCCl)OCCC2CCCCN21 (stereo not drawn) | inactive: 13.9% | – |

| Structure (SMILES) | activity, negative = toxicity | Potency |
| --- | --- | --- |
| O=C(OC1CN2CCC1CC2)c1ccccc1 (stereo not drawn) | inactive: 14.1% | – |
| CCC(=O)N1C2C3N(C(=O)CC)C1C1N(C(=O)CC)C(C(N1C(=O)CC)N3C(=O)CC)N2C(=O)CC | inactive: 11.4% | – |
| COC(=O)c1cc2c(s1)N=C(c1ccccc1)N(C)P2(=O)N1CCOCC1 (stereo not drawn) | inactive: 10.5% | – |
| CC(=O)NC(SC(=S)N(CC(C)C)CC(C)C)C(Cl)(Cl)Cl (stereo not drawn) | inactive: 5.7% | – |
| Cc1ccc(OP(=O)(Nc2ccccn2)Oc2ccc(C)cc2)cc1 | inactive: -5.03% | – |
| Cc1ccccc1OP(=O)(Nc1ccccn1)Oc1ccccc1C | inactive: -20.8% | – |
| CC(NC(=O)COC(=O)C(O)(c1ccccc1)c1ccccc1)c1ccccc1 (stereo not drawn) | inactive: -1.47% | – |
| CN(C)C(=O)Oc1noc2ccccc12 | inactive: 10.2% | – |
| O=c1c2cc([N+](=O)[O-])ccc2[nH]c2c([N+](=O)[O-])cc([N+](=O)[O-])cc12 | – | active: 2.59 µM |
| Nc1ccc(CCCCOc2ccccc2)cc1 | inactive: -19.9% | – |
| COc1ccc(N)c([N+](=O)[O-])c1[N+](=O)[O-] | inactive: -8.29% | – |
| O=P(Nc1nc2ccccc2s1)(c1ccccc1)c1ccccc1 | inactive: -17.6% | – |
| C[C@H]1OP(=O)(Oc2ccccc2)[C@H](O)[C@H](O)[C@H]1N=[N+]=[N-] (stereo partly drawn) | inactive: -1.29% | – |
| O=[As](O)(c1ccccc1)c1ccc(O)cc1 | inactive: -2.53% | – |
| CC(=O)NC(SC(=S)N(C)C)C(Cl)(Cl)Cl (stereo not drawn) | inactive: -5.43% | – |
| O=[N+]([O-])c1ncn(CCn2cnc([N+](=O)[O-])n2)n1 | inactive: 9.17% | – |
| O=C(OC1CN2CCC1CC2)c1cccc(Cl)c1 (stereo not drawn) | inactive: 4.59% | – |
| Nc1ccc([As](=O)(O)c2ccc([N+](=O)[O-])cc2)cc1 | inactive: 24.6% | – |
| C(Cc1nn[nH]n1)Cc1nn[nH]n1 | inactive: 20.3% | – |
| CC(C)C(=O)NC(Sc1ccccc1)C(Cl)(Cl)Cl (stereo not drawn) | inactive: 16.9% | – |
| O=P(Nc1nccs1)(c1ccccc1)c1ccccc1 | inactive: 10.6% | – |

| Structure (SMILES) | activity, negative = toxicity | Potency |
| --- | --- | --- |
| c1nnnn1CCn1cnnn1 | inactive: 13.9% | – |
| COc1ccc(C2=NCC(CBr)S2)cc1 (stereo not drawn) | inactive: -24.6% | – |
| Cc1ccc(NP(=O)(Oc2ccccc2)Oc2ccccc2)nc1 | inactive: -4.87% | – |
| CCc1nc2c(n1)c1c(non1O)c1c2no[n+]1[O-] | – | active: 20.6 µM |
| O=[N+]([O-])c1cccc2n[nH]nc12 | inactive: -8.21% | – |
| CC(=O)N1C2C3N(C(C)=O)C1C1N(C(C)=O)C(C(N1C(C)=O)N3C(C)=O)N2C(C)=O | inactive: 11.9% | – |
| CCN(/C(=N/P(=O)(N1CCOCC1)N1CCOCC1)N1CCOCC1)c1ccc(OC)cc1 | inactive: 18.7% | – |
| Nc1ccc([As](=O)(O)c2ccc(N)cc2)cc1 | inactive: 11.5% | – |
| c1cc(-c2nn[nH]n2)ccc1-c1nn[nH]n1 | inactive: -7.34% | – |
| CC1CCN(C(=O)Oc2c(Cl)cc(Cl)c3cccnc23)CC1 | inactive: -2.22% | – |
| CC(C)=N/N=C(\N)N[N+](=O)[O-] | inactive: 3.69% | – |
| CC(C)c1nc(Nc2ccccc2)n(P(=O)(N(C)C)N(C)C)n1 | inactive: 1.87% | – |
| CN(C)C(=O)OCCc1n(C)cc[n+]1C | inactive: 11.6% | – |
| O=P1(N(CCCl)CCCl)OCCCS1 (stereo not drawn) | inactive: 6.48% | – |
| O=C(Nc1cc([As](=O)(O)O)ccc1O)c1ccccc1 | inactive: 8.32% | – |
| O=[N+]([O-])c1ncn(CCn2ncnc2[N+](=O)[O-])n1 | inactive: -8.38% | – |
| CC(C)(C)C(=O)NC(Sc1ccncn1)C(Cl)(Cl)Cl (stereo not drawn) | inactive: -0.659% | – |
| O=C(O)CNc1ccc([As](=O)(O)O)cc1 | inactive: 5.16% | – |
| O=[N+]([O-])c1cccc(NC2=NCC(CBr)S2)c1 (stereo not drawn) | inactive: 3.38% | – |
| COC(=O)C1(C)COP(=O)(Nc2ccccc2)OC1 (stereo not drawn) | inactive: 5.73% | – |
| CN(C)P(=O)(N(C)C)n1c(Nc2ccccc2)nnc1-c1ccccc1 | inactive: -16.7% | – |

| Structure (SMILES) | activity, negative = toxicity | Potency |
| --- | --- | --- |
| O=C(O)c1ccccc1[As](=O)(O)O | inactive: 9.91% | – |
| CC(=O)Nc1ccc([As](=O)(O)O)cc1 | inactive: 15.6% | – |
| CCCC1OP(N)(=O)OCC1CC (stereo not drawn) | inactive: 0.991% | – |
| CCOP(=O)(Nc1ccccc1)OCC | inactive: 16.4% | – |
| Cc1cc(SC(NC(=O)c2ccc(F)cc2)C(Cl)(Cl)Cl)ncn1 (stereo not drawn) | inactive: 9.26% | – |
| Cc1ccc(NP(=O)(Oc2ccccc2F)Oc2ccccc2F)nc1 | inactive: 20% | – |
| CN(C(=O)Cc1ccc(Cl)c(Cl)c1)[C@H]1CCCC[C@@H]1N1CCCC1 | inactive: -26.5% | – |
| Nc1cccc2ccc([As](=O)(O)O)cc12 | inactive: 1.28% | – |
| CCN(N=Nc1nonc1N)c1nonc1N | inactive: -0.361% | – |
| Cc1ccc(N/C(=N/P(=O)(N2CCOCC2)N2CCOCC2)N2CCOCC2)cc1 | inactive: 15.3% | – |
| NC(=O)c1cc([N+](=O)[O-])cc([N+](=O)[O-])c1N | inactive: 5.65% | – |
| Clc1ccc(Cl)c(NC2=NCC(CBr)S2)c1 (stereo not drawn) | inactive: 3.46% | – |
| CN1CCCC(OC(=O)C(c2ccccc2)c2ccccc2)C1 (stereo not drawn) | inactive: -1.39% | – |
| COc1ccccc1OP(=O)(Nc1ccc(C)cn1)Oc1ccccc1OC | inactive: -4.24% | – |
| Cc1ccc(OP(=O)(Nc2nccs2)Oc2ccc(C)cc2)cc1 | inactive: -0.892% | – |
| Oc1ccccc1CNc1ccccn1 | inactive: 0.862% | – |
| O=C(NC(Sc1ccncn1)C(Cl)(Cl)Cl)c1ccccc1 (stereo not drawn) | inactive: -8.13% | – |
| CC(C)CC(=O)NC(Sc1ccc(Cl)cc1)C(Cl)(Cl)Cl (stereo not drawn) | inactive: 4.52% [at 9.24 µM] | – |
| Nc1cc(N)c2nonc2c1[N+](=O)[O-] | inactive: 1.68% | – |
| O=[N+]([O-])C1C(O)C(O)C([N+](=O)[O-])C(O)C1O (stereo not drawn) | inactive: 16.3% | – |
